We go through one substance from patent US20200164114A1.

By IC50 is commonly meant the midpoint of a concentration-inhibition curve. Low values mean greater potency, high ones weaker potency.

In experiment [1] the target is integrin α5β1 on human erythroleukemia K562 cells (human) (UniProt P08648). Briefly: cell adhesion inhibition: K562 cells to immobilized fibronectin.
Experiment [2] addresses integrin αIIbβ3 on CHO cells (CHO-αIIbβ3) (UniProt P08514). Briefly: cell adhesion inhibition: CHO-αIIbβ3 cells to immobilized fibrinogen.

For the substance rhodostomin, the figures for the IC50 in experiment [1] and in experiment [2] were 257 nM and 52.2 nM, respectively.
